Screening results from PubChem.
PINK1 modulator – changes PINK1 expression; Potency, µM (titrated, usually from 76.6 µM), inactives show top-dose activation (PINK1 increase), actives largely listed as activators; AID 624263; PINK1 immunofluorescence, high-content cytometry, 24 h; actives 0.2% (n = 410,000); active means well fitted activation curve with a large enough effect; inconclusive means small, poorly fitted or top-dose-only effect; cell line not stated here; further: potency means the concentration at half of the fitted maximal effect; % of control where 0% means no effect; nearly all actives have a fitted effect of over 65% in size
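Stable cell line, 250 cells/well, 12 h attachment; compounds pinned at 5 concentrations, 24 h; CCCP control. Fixed with nuclear dye, primary antibodies 12 h at 10 degrees C, secondary plus cell stain; laser-scanning cytometer read.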
miR-21 FLuc – miR-21 reporter, rising signal | 340,000 tested, under 10 active | AID 2288 | HeLa miR-21 FLuc reporter, luciferase, 48 h | Potency, µM (titrated, usually from 38.3 µM), for inactives: at the highest dose reporter change, positive = more light; active = well fitted rising curve with a large enough effect; inconclusive = small, poorly fitted or top-dose-only effect; inactive = no such curve, though single readings can be large or run the other way;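 further: % of control where 0% means no effect; miR-21 action dims this reporter so a rising signal means less miR-21 action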
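HeLa cells endogenously expressing miR-21, stably carrying CMV-driven firefly luciferase with a downstream miR-21 binding site, 2000 cells/well. Titrations up to approximately 40 uM, 48 hours; luciferase luminescence read.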
RXFP1 antag – blocks the human relaxin receptor RXFP1 | Q9HBX9 | HEK293-RXFP1, relaxin-stimulated cAMP HTRF, 30 min; active compounds read low | activity change, negative = inhibition, % at 57.5 µM | actives 0.59% (n = 350,000);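 active means activity change of -60% or lower, but not beyond a set lower limit; inconclusive means change between -60% and -40%, or beyond the set limit; inactive means change above -40%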; further: on the % scale 0 is the no-effect control and ±100 the full control effect
RXFP1 agonist – RXFP1 (human) receptor agonism; Q9HBX9; HEK293T-RXFP1 cAMP TR-FRET, 30 min; response scale: percent of porcine relaxin response, buffer zero; Potency, µM (doses to about 57.5 µM), for inactives: at the top dose activation, actives largely listed as activators; actives 0.3% (n = 370,000); AID 2676; further: potency means the concentration at half of the fitted maximal effect; on the % scale 0 is the no-effect control and ±100 the full control effect; nearly all actives have a fitted effect of over 60% in size
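HEK293T cells stably expressing RXFP1 were pretreated with the PDE4 inhibitor Ro 20174, exposed to compounds for 30 min at 37C, lysed, and cAMP was read by TR-FRET. Data normalized to buffer (basal) and 29 nM porcine relaxin (100%).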
TCR activator – activators of T cell receptors; Potency, µM (titrated, usually from 9.22 µM), for the others: at the top dose activation of IL-2 secretion, actives largely listed as activators; 330,000 tested, under 10 active; primary human leukocytes, anti-CD3, IL-2 HTRF, 48 h; further: % of control where 0% means no effect
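Primary human leukocytes incubated 48 hr with anti-CD3 beads plus compound, without co-stimulation. Secreted IL-2 measured by HTRF (europium cryptate/d2 anti-IL-2 pair, 320 nm excitation, 665 nm emission).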
IL2 activator – activates IL-2 in a cell-based reporter assay. IL-2 activation reporter assay, cell-based qHTS; stimulated with anti-CD3/CD4/CD28 beads; in transgenic mouse T cells. activation, % (series mostly up to about 46 µM). actives 0.065% (n = 360,000). AID 652025; in the data active means activation above about 50%; inconclusive means mostly about 30% to 49%; further: 0% is about no effect
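Quantitative HTS in unstimulated transgenic mouse T cells, with memory T cells as non-tolerant control and PMA/ionomycin as tolerance-bypass control. Compound pretreatment lasted 60 minutes before 18 h bead stimulation; EGFP/DsRed fluorescence read.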
* marks the source's active call; other numbers are inactive results; ? = inconclusive; · = not tested or not shown; [ ] = another dose, or the depositor's remark. Rows were chosen to be rich in hits. Some 0.78% of all compounds tested hit in one or more screens of this group. Unless noted, the call rests on the fitted dose curve; in most records, active means well fitted curve in the direction sought with a large enough effect; inconclusive means small, poorly fitted or top-dose-only effect, or another doubt; inactive means no such curve, though single readings can be large; an effect the other way counts as inactive or inconclusive.

canonical_smiles | RXFP1 agonist | PINK1 modulator | RXFP1 antag | IL2 activator | miR-21 FLuc | TCR activator
COc1ccc(CCn2c(=N)c(S(=O)(=O)c3ccc(C)cc3)cc3c(=O)n4ccccc4nc32)cc1 | 1% | ? | 0 | 61* | -2% | -2%
COCCn1c(=N)c(S(=O)(=O)c2ccc(Br)cc2)cc2c(=O)n3ccccc3nc21 | -2% | 0% | -4 | 0 | -4% | 2%
Cc1ccc(Cn2c(=N)c(S(=O)(=O)c3ccc(Br)cc3)cc3c(=O)n4ccccc4nc32)cc1 | ? | 2% | -6 | 95* | -8% | 1%
Cc1ccc(CN2CC(C(=O)Nc3cc(C)ccn3)CC2=O)cc1 (stereo not given) | 0% | 12% | -118* | -1 | · | 0%
Cc1cc2nc(N3CCCN(Cc4cccn4-c4ncccn4)CC3)nc(C)c2cc1C | · | -1% | · | · | · | ·
COc1ccc(N2CCN(c3ncnc4scc(-c5ccc(F)cc5)c34)CC2)cc1 | 1% | 4% | -7 | -1 | 22% | 0%
Fc1ccc(-c2csc3ncnc(N4CCN(c5ccccc5)CC4)c23)cc1 | -1% | 1% | -65* | 0 | -1% | -7%
COc1ccc(CN2CCN(c3ncnc4scc(-c5ccc(F)cc5)c34)CC2)cc1 | -1% | 12% | -61* | -7 | 13% | 1%
O=C(NCc1ccncc1)c1cnn(-c2nccc(-c3cc4ccccc4o3)n2)c1C1CC1 | · | 5% | · | · | · | ·
O=C(NCc1ccccn1)c1cnn(-c2nccc(-c3cc4ccccc4o3)n2)c1C1CC1 | · | 5% | · | · | · | ·
CCCCCCCCCc1nc2sc3c(c2c(=O)n1NC(=O)c1ccc([N+](=O)[O-])cc1)CC(C)(C)OC3 | 8% | 13µM* | -15 | 0 | 1% | -4%[46.1 µM]
COc1ccc(/C=N/NC(=O)c2cccnc2)cc1COc1ccc([N+](=O)[O-])cc1 | 1% | 3% | -85* | -4 | 18% | 5%
CCOc1ccc(CCNC(=O)CSc2nc3ccccc3nc2Cc2ccc(C)cc2)cc1OCC | 14µM* | 3% | 2 | · | 19% | ·
Oc1ccc(-c2nc3ccc(Cl)cn3c2Nc2ccc(Cl)cc2)cc1 | 7% | 1% | -67* | · | 22% | ·
CC(C)(C)Nc1c(-c2ccc(O)cc2)nc2ccc(Cl)cn12 | 0% | -1% | -8 | -1 | 6% | 0%
O=C(NCCOc1ccccc1)c1cccc2c1C(=O)c1ccc(Cl)cc1S2(=O)=O | -1% | 4% | · | -3 | · | 8%
COc1ccc(-c2ccc3c(c2)S(=O)(=O)c2cccc(C(=O)NCCOc4ccccc4)c2C3=O)cc1OC | 3% | 35µM* | · | 23 | · | -2%
COc1ccc(CN2CCOc3ccc(C(O)c4cccnc4)cc3C2)c(OC)c1OC (stereo not given) | · | 0% | · | · | · | ·
CCn1c(-c2ccccc2F)nc2cc(C(=O)NC(c3ccccn3)C(F)(F)F)cc(NC(C)=O)c21 (stereo not given) | · | 1% | · | · | · | ·
c1ccc(N=c2nc(-c3ccccc3)n(-c3ccccc3)s2)cc1 | · | 16µM* | · | · | · | ·
O=[N+]([O-])c1ccccc1/C=C/C=N/n1c(-c2cc(-c3ccccc3)n[nH]2)n[nH]c1=S | 1% | 13% | -69* | -3 | -9% | -5%
Cc1ccc(-c2n[nH]c(=S)n2/N=C/C=C/c2ccccc2[N+](=O)[O-])cc1 | 2% | 0% | -29 | -3 | -6% | 5%
CC(C)=NNc1nc2c(c(=O)[nH]c(=O)n2C)n1CCCc1ccccc1 | 6% | 1% | 3 | 2 | -4% | -5%
CC(C)=NNc1nc2c(c(=O)[nH]c(=O)n2C)n1CCc1ccccc1 | 0% | -4% | -70* | 2 | -12% | 6%
N#C/C(=C/c1ccccc1)C(=O)NCc1ccccc1 | 1% | 6% | -26 | 0 | -5% | 0%
CN(C)c1ccc(/C=C(/C#N)C(=O)NCc2ccccc2)o1 | 0% | ? | -4 | 83* | -78% | 6%[46.1 µM]
COc1ccc2[nH]c3c(NCCC4=CCCCC4)ncnc3c2c1 | -1% | -2% | -71* | -2 | 5% | 3%
Cc1cnc(-n2ncc(C(=O)N(C)CCc3ccccn3)c2-c2cccs2)nc1-c1ccc(F)cc1 | · | 1% | · | · | · | ·
O=C(CN1CCCc2ccccc21)N/N=C/c1c(O)ccc2ccccc12 | 0% | 8% | -61* | 3 | 0% | 4%[46.1 µM]
O=C(CN1CCCc2ccccc21)N/N=C/c1ccccc1 | -1% | 3% | 4 | 0 | -33% | -5%[46.1 µM]
COc1ccc(NC(=O)CSc2nnnn2C)cc1S(=O)(=O)N1CCCCC1 | 4% | -1% | -82* | 0 | · | -9%
CCC(=O)OCCNc1cc(Sc2nc3ccccc3s2)c2nonc2c1[N+](=O)[O-] | 7% | ? | -19 | 4 | ? | ·
Cc1nnc(Sc2cc(NCCO)c([N+](=O)[O-])c3nonc23)s1 | 20% | 7% | -82* | -2 | ? | 6%
CCCSc1cc(NCCOC(C)=O)c([N+](=O)[O-])c2nonc12 | 6% | 0% | -5 | -2 | -11% | -5%[46.1 µM]
CCCC(=O)OCCNc1cc(Sc2nccn2C)c2nonc2c1[N+](=O)[O-] | 10% | 1% | -81* | 2 | ? | -4%[46.1 µM]
O=[N+]([O-])c1c(NCCCO)cc(Sc2nc3ccccc3s2)c2nonc12 | -1% | 17%[38.3 µM] | -73* | -3 | 8% | 0%
Cc1nnc(Sc2cc(NCCCO)c([N+](=O)[O-])c3nonc23)s1 | 25% | 1% | -68* | -4 | ? | -13%
CC(C)c1c(C(=O)NCC2(N3CCOCC3)CCCC2)cnn1-c1nccc(-c2cccs2)n1 | · | 0% | · | · | · | ·
C[n+]1c(-c2ccccc2)cc2c(=Cc3ccc([N+](=O)[O-])cc3)c3ccccc3n21 | · | 4.5µM* | -18 | -4 | · | 6%
C[n+]1c(-c2ccccc2)cc2c(=Cc3ccccc3)c3ccccc3n21 | · | ? | -18 | -2 | · | 10%
COc1cc(=O)n2c(c1C(=O)N(C)Cc1cscn1)CCN(Cc1ccc3c(c1)OCCO3)CC2 | · | 1% | · | · | · | ·
COc1cc(=O)n2c(c1C(=O)N(C)Cc1nonc1C)CCN(Cc1cccc(Cl)c1)CC2 | · | 1% | · | · | · | ·

Among those listed so far, these contain two or more sulfur atoms:
canonical_smiles | RXFP1 agonist | PINK1 modulator | RXFP1 antag | IL2 activator | miR-21 FLuc | TCR activator
COc1ccc(NC(=O)CSc2nnnn2C)cc1S(=O)(=O)N1CCCCC1 | 4% | -1% | -82* | 0 | · | -9%
CCC(=O)OCCNc1cc(Sc2nc3ccccc3s2)c2nonc2c1[N+](=O)[O-] | 7% | ? | -19 | 4 | ? | ·
Cc1nnc(Sc2cc(NCCO)c([N+](=O)[O-])c3nonc23)s1 | 20% | 7% | -82* | -2 | ? | 6%
O=[N+]([O-])c1c(NCCCO)cc(Sc2nc3ccccc3s2)c2nonc12 | -1% | 17%[38.3 µM] | -73* | -3 | 8% | 0%
Cc1nnc(Sc2cc(NCCCO)c([N+](=O)[O-])c3nonc23)s1 | 25% | 1% | -68* | -4 | ? | -13%
